Reference: article PMC12702776, “New insights into the classification of the RAC1 P29S hotspot mutation in melanoma as an oncogene” (Cancer Gene Therapy, 2025)

Molecular target: GST-IQGAP1 C794 (UniProt P46940)
Assay: pull-down; active GTPase pull-down as a7, but HEK-293T cells serum-starved for 24 h; values against the serum-stimulated condition

percent decrease of binding strength under serum starvation: 33.6%
Substance: Flag-RAC1^T17N (from UniProt P63000 1-192) (natural protein)
